From ChEMBL document CHEMBL3808280, “GroEL/ES inhibitors as potential antibiotics” (Bioorg Med Chem Lett, 2016)

Test: Selectivity ratio of IC50 for human HSP60/HSP10 expressed in Escherichia coli Rosetta2(DE3) cells to IC50 for Escherichia coli GroEL/GroES using Escherichia coli GroEL expressed in Escherichia coli DH5alpha cells and Escherichia coli GroES expressed in Escherichia coli BL21(DE3) cells by denatured pig heart MDH refolding assay

Structure (SMILES) | Ratio IC50
Cn1c(=O)c(C(=O)Nc2ccncc2)c(O)c2ccccc21 | > 17
Cc1ccc(S(=O)(=O)Nc2ccc(-c3nc4ccc(NS(=O)(=O)c5ccc(C)cc5)cc4[nH]3)cc2)cc1 | 12
O=C(Nc1ccc(Sc2nc3ccccc3s2)c(Cl)c1)c1cc(Br)cc(Br)c1O | 4
